Active and inactive are the calls of the source. The calls are words filed in the database; no cut-off is given here.
Legend:
[1] = target: T1, Transient receptor potential cation channel subfamily M member 2 (Homo sapiens, UniProt O94759); assay: Antagonist activity at human TRPM2 expressed in HEK293 cells assessed as inhibition of ADPR-induced maximum outward potassium current at 100 uM at +15 mV by whole-cell patch-clamp electrophysiology; format: cell-based
Procedure, shortened: (§1)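 Stable clonal HEK293 line expressing human TRPM2 (with EGFP, G418-selected). Whole-cell patch clamp at room temperature; bath had 140 mM NMDG, 1 mM Ca2+, pH 7.4; KCl/EGTA pipet solution held 200 nM free Ca2+. Channel was activated by 100 μM ADPR in the pipet, and analogue was added to the same pipet solution. Read-out: maximum outward current at +15 mV from repeated ramps every 5 s over 450 s.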

Chains of the proteins cited; added tags and fusions are not shown.
UniProt O94759, whole entry: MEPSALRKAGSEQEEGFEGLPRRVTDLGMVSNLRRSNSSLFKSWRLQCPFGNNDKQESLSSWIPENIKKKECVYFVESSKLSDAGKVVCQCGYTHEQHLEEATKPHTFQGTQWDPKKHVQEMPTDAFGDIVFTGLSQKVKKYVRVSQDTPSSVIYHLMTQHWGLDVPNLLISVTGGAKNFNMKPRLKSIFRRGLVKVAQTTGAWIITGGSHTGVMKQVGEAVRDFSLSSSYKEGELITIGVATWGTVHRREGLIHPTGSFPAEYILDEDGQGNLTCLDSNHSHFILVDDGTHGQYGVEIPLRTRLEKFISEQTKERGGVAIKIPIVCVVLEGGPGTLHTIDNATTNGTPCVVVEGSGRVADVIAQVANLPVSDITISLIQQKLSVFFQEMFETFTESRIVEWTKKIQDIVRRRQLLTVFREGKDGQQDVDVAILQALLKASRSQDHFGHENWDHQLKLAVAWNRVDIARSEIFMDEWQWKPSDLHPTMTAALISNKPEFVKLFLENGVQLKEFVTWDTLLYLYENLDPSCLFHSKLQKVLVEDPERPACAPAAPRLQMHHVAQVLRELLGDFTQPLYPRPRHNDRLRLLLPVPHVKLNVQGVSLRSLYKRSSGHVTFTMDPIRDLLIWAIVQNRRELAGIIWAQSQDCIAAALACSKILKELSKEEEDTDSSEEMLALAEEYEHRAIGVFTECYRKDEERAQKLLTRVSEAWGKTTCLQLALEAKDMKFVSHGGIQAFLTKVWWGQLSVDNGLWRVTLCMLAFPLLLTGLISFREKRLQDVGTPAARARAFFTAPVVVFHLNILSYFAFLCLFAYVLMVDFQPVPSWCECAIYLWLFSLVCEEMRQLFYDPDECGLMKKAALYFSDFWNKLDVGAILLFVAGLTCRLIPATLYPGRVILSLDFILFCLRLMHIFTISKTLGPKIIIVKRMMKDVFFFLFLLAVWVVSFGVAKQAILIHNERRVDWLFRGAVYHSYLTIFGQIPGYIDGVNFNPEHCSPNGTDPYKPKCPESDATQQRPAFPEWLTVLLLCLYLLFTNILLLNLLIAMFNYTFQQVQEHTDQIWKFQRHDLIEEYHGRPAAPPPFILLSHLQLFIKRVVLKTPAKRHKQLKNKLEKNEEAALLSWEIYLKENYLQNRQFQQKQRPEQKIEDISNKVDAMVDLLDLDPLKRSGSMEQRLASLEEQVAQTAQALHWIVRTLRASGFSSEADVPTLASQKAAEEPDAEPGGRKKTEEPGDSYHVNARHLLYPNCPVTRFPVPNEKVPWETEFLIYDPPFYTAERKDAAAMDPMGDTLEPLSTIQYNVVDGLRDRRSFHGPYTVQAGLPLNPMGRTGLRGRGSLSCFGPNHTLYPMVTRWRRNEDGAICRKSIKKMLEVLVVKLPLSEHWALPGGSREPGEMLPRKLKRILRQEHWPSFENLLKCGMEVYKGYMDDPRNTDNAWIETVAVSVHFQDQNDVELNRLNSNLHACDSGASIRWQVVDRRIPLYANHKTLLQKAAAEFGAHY

[2] = target: T1, Transient receptor potential cation channel subfamily M member 2; assay: Antagonist activity at human TRPM2 expressed in HEK293 cells assessed as inhibition of ADPR-induced maximum outward potassium current at 900 uM at +15 mV by whole-cell patch-clamp electrophysiology; format: cell-based; procedure, shortened: as §1

Structure (SMILES): Nc1ncnc2c1ncn2[C@@H]1O[C@H](COS(=O)(=O)NC(=O)c2ccccc2O)[C@@H](O)[C@H]1O
- inhibition [1]: inactive
- inhibition [2]: inactive
